Measurements reported in paper PMC3684770, “S[+] Apomorphine is a CNS penetrating activator of the Nrf2-ARE pathway with activity in mouse and patient fibroblast models of amyotrophic lateral sclerosis^” (Free Radical Biology & Medicine, 2013).

What was measured:
Nrf2-ARE pathway = test system: Nrf2-ARE pathway
Description: The Z′ score was calculated as follows Z′=1−(3SD^++3SD^−)/(Ave^+–Ave^−) where SD^+ = standard deviation of positive control wells; SD^− = standard deviation of negative control wells; Ave^+ = average fluorescence reading of positive control wells; Ave^− = average fluorescence reading of negative control wells.
Media was removed by hand and replaced (1 compound/well) with the Spectrum library diluted to 10 μM in 0.1% DMSO using a Q-bot liquid handling system (Genetix, New Milton, UK). […] The TK-GFP CHO ARE cell line was screened twice in a single point assay and the control TK-GFP CHO cell line was screened once to eliminate false positives.
The compounds were applied in triplicate to confluent cells in 96 well plates in serum free medium for 24 hours and the induction of GFP measured in a fluorescence plate reader.
In order to screen the Spectrum collection of 2000 molecules the reporter assay was optimised in […]. To assess the suitability of the assay for library screening, a Z’ score calculation was performed by treating alternate wells with vehicle (0.1% DMSO) and 10 µM Ebselen as a positive control (see calculation in Methods). […] The library was subsequently screened at a single point concentration of 10µM for every compound. […]

[1] = test system: 1321N1 astrocyte cell line

3-α-Hydroxygedinin
Toxic dose (Nrf2-ARE pathway): 100 µM | NSC34 oxidative stress assay Toxic dose (NSC34 cells): 10 µM | 1321N1 oxidative stress assay Toxic dose [1]: None | C6 oxidative stress assay Toxic dose (C6 astrocyte cell line): None
